These results are taken from patent US20100029554A1, “Composition and Methods for Treatment of Congestive Heart Failure” (Amylin Pharmaceuticals, Inc., priority 2006, published 2010).

This test concerns the target T1, GLP-1 receptor, endogenous in RINm5f cells (rat (RIN-m5F are called rat pancreas insulinoma cells)), P32301.
T1 chain: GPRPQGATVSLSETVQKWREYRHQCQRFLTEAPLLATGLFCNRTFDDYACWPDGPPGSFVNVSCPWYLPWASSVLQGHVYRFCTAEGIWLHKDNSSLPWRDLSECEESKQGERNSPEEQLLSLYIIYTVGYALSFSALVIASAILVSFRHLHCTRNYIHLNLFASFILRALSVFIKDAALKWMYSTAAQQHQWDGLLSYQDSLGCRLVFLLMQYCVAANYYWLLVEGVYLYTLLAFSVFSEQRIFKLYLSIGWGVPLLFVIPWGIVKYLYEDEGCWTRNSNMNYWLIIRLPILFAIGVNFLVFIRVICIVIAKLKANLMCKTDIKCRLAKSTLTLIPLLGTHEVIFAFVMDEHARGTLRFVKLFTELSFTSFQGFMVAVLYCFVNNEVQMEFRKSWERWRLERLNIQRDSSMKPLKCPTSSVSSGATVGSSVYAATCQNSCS
Description: 125I-GLP-1 displacement, RINm5f membranes.

What is called IC50 is the concentration that gives 50% inhibition. Low readings indicate higher potency, high ones lower potency. HAEGTFTSDVSSYLEGQAAKEFIAWLVKGRGGG (modifications not checked) [Cmpd 4844, GLP-1-(7-37)-GG(S)-2,6-diamino-1-(thiazolidin-3-y1)hexan-1-one amide] showed a concentration for half-maximal inhibition (IC50) of 0.087 nM.

Consider HAEGTFTSDVSSYLEGQAAKEFIAWLVKGRGGG (modifications not checked) [Cmpd 4845, GLP-1-(7-37)-GG-(S)-2,6-diamino-1-(thiazolidin-2-cyano-3-y1)hexan-1-one amide], for which the IC50 was found to be 0.1 nM.
